Where “and” joins values, the source holds several entries; their conditions need not be identical. Equal values may be shown once.
Legend:
[1] = test system: V428 human vaginal epithelial cells

## CCCCCCCCCCCC(=O)OCC(O)CO (centres unmarked) [GML, glycerol monolaurate]
[1]
  RNA synthesis in epithelial cells: complete inhibition
Chlamydia trachomatis
  Average number of inclusion bodies per field, With GML: None
  inclusions in wells to which GML was added: no inclusions were seen
B cells
  Counts/min (incorporation of 3H-thymidine into DNA): 5,500 Counts/min and 10,000 Counts/min
S. aureus MN8
  GML concentration at which S. aureus MN8 did not grow: 300 µg/mL

Reference: patent publication US20070276049A1 (priority 2003, published 2007)
